Columns and labels:
Rattus norvegicus [1] = species: Rattus norvegicus; experiment: Open TG-GATES - Regimen: Daily Repeat; assay type: toxicity, organism-based, Sprague-Dawley; set-up: regimen Daily Repeat, gender Male, age 6 weeks; conditions: in vivo, po, route gavage; for A/G: tissue Plasma
Rattus norvegicus [2] = species: Rattus norvegicus; experiment: Open TG-GATES - Regimen: Single; assay type: toxicity, organism-based, Sprague-Dawley; set-up: regimen Single, gender Male, age 6 weeks; conditions: in vivo, po, route gavage; for A/G: tissue Plasma
[3] = 0 mg/kg, 72 h, tissue Blood, dose level Control, time 3 day
[4] = 0 mg/kg, […], tissue Blood, dose level Control, time 7 day
[5] = 0 mg/kg, 3 h, dose level Control
[6] = 0 mg/kg, 6 h, dose level Control
[7] = 0 mg/kg, 9 h, dose level Control
[8] = 0 mg/kg, 24 h, dose level Control
[9] = 0 mg/kg, […], tissue Blood, dose level Control, time 28 day
[10] = 300 mg/kg, 72 h, tissue Blood, dose level Middle, time 3 day
[11] = 300 mg/kg, […], tissue Blood, dose level Middle, time 14 day
[12] = 300 mg/kg, […], tissue Blood, dose level Middle, time 28 day
[13] = 1000 mg/kg, […], tissue Blood, dose level High, time 14 day
[14] = 1000 mg/kg, […], tissue Blood, dose level High, time 28 day
[15] = 300 mg/kg, 24 h, tissue Blood, dose level Middle
[16] = 1000 mg/kg, 24 h, tissue Blood, dose level High

`O=C(CCCN1CCC(O)(c2ccc(Cl)cc2)CC1)c1ccc(F)cc1` [HALOPERIDOL] gave an MCV (Rattus norvegicus [1]; [3]) of 64.9 fL, an A/G (Rattus norvegicus [1]; 0 mg/kg, 72 h, dose level Control, time 3 day) of 2 and a WBC (Rattus norvegicus [1]; [4]) of 82.7 x10_2/uL. The A/G (Rattus norvegicus [1]; 0 mg/kg, […], dose level Control, time 7 day) was 2, the A/G (Rattus norvegicus [1]; 0 mg/kg, […], dose level Control, time 14 day) was 1.7 and the A/G (Rattus norvegicus [1]; 0 mg/kg, […], dose level Control, time 28 day) was 1.7. For the same compound, the A/G (Rattus norvegicus [1]; 3 mg/kg, 72 h, dose level Low, time 3 day) was 2, the A/G (Rattus norvegicus [1]; 3 mg/kg, […], dose level Low, time 7 day) was 1.9 and the A/G (Rattus norvegicus [1]; 3 mg/kg, […], dose level Low, time 14 day) was 1.8. For the same compound, the A/G (Rattus norvegicus [1]; 3 mg/kg, […], dose level Low, time 28 day) was 1.6, the A/G (Rattus norvegicus [1]; 10 mg/kg, 72 h, dose level Middle, time 3 day) was 2.2 and the PT (Rattus norvegicus [1]; 10 mg/kg, […], tissue Blood, dose level Middle, time 28 day) was 12.5 s. For the same compound, the A/G (Rattus norvegicus [1]; 10 mg/kg, […], dose level Middle, time 7 day) was 1.8, the A/G (Rattus norvegicus [1]; 10 mg/kg, […], dose level Middle, time 14 day) was 1.8 and the A/G (Rattus norvegicus [1]; 10 mg/kg, […], dose level Middle, time 28 day) was 1.7. For the same compound, the A/G (Rattus norvegicus [1]; 30 mg/kg, 72 h, dose level High, time 3 day) was 2.4, the A/G (Rattus norvegicus [1]; 30 mg/kg, […], dose level High, time 7 day) was 2 and the A/G (Rattus norvegicus [1]; 30 mg/kg, […], dose level High, time 14 day) was 1.8. For the same compound, the A/G (Rattus norvegicus [1]; 30 mg/kg, […], dose level High, time 28 day) was 1.7, the A/G (Rattus norvegicus [2]; [5]) was 2 and the A/G (Rattus norvegicus [2]; [6]) was 2. The A/G (Rattus norvegicus [2]; [7]) was 2.3, the A/G (Rattus norvegicus [2]; [8]) was 1.9 and the PT (Rattus norvegicus [2]; 3 mg/kg, 3 h, tissue Blood, dose level Low) was 12.5 s. For the same compound, the A/G (Rattus norvegicus [2]; 3 mg/kg, 3 h, dose level Low) was 1.8, the A/G (Rattus norvegicus [2]; 3 mg/kg, 6 h, dose level Low) was 1.9 and the PT (Rattus norvegicus [2]; 3 mg/kg, 9 h, tissue Blood, dose level Low) was 12.5 s. The A/G (Rattus norvegicus [2]; 3 mg/kg, 9 h, dose level Low) was 1.9, the A/G (Rattus norvegicus [2]; 3 mg/kg, 24 h, dose level Low) was 1.8 and the A/G (Rattus norvegicus [2]; 10 mg/kg, 3 h, dose level Middle) was 1.8. The A/G (Rattus norvegicus [2]; 10 mg/kg, 6 h, dose level Middle) was 1.9, the A/G (Rattus norvegicus [2]; 10 mg/kg, 9 h, dose level Middle) was 2 and the MCV (Rattus norvegicus [2]; 10 mg/kg, 24 h, tissue Blood, dose level Middle) was 65.5 fL. For the same compound, the A/G (Rattus norvegicus [2]; 10 mg/kg, 24 h, dose level Middle) was 1.9, the A/G (Rattus norvegicus [2]; 30 mg/kg, 3 h, dose level High) was 1.9 and the A/G (Rattus norvegicus [2]; 30 mg/kg, 6 h, dose level High) was 1.9. The A/G (Rattus norvegicus [2]; 30 mg/kg, 9 h, dose level High) was 2.3 and the A/G (Rattus norvegicus [2]; 30 mg/kg, 24 h, dose level High) was 2.1.
Compound `O=C(O)c1cccnc1` [NIACIN] has an APTT (Rattus norvegicus [1]; [3]) of 20.9 s, an MCH (Rattus norvegicus [1]; [3]) of 20.9 pg and an APTT (Rattus norvegicus [1]; [4]) of 23.2 s. It also gave an APTT (Rattus norvegicus [1]; 0 mg/kg, […], tissue Blood, dose level Control, time 14 day) of 22.9 s, an APTT (Rattus norvegicus [1]; [9]) of 24.4 s and an MCH (Rattus norvegicus [1]; [9]) of 19.9 pg. The APTT (Rattus norvegicus [1]; 100 mg/kg, 72 h, tissue Blood, dose level Low, time 3 day) was 21.6 s, the APTT (Rattus norvegicus [1]; 100 mg/kg, […], tissue Blood, dose level Low, time 7 day) was 21.3 s and the MCH (Rattus norvegicus [1]; 100 mg/kg, […], tissue Blood, dose level Low, time 28 day) was 19.8 pg. For the same compound, the APTT (Rattus norvegicus [1]; [10]) was 21.6 s, the MCH (Rattus norvegicus [1]; [10]) was 20.9 pg and the APTT (Rattus norvegicus [1]; [11]) was 23.5 s. For the same compound, the MCH (Rattus norvegicus [1]; [11]) was 20.2 pg, the APTT (Rattus norvegicus [1]; [12]) was 24.4 s and the MCH (Rattus norvegicus [1]; [12]) was 19.7 pg. For the same compound, the MCH (Rattus norvegicus [1]; 1000 mg/kg, 72 h, tissue Blood, dose level High, time 3 day) was 20.9 pg, the APTT (Rattus norvegicus [1]; [13]) was 22.1 s and the MCH (Rattus norvegicus [1]; [13]) was 20.4 pg. The APTT (Rattus norvegicus [1]; [14]) was 23.8 s, the MCH (Rattus norvegicus [1]; [14]) was 19.8 pg and the TERMINAL_BW (Rattus norvegicus [2]; [5]) was 210.3 g. For the same compound, the TERMINAL_BW (Rattus norvegicus [2]; [6]) was 207.1 g, the APTT (Rattus norvegicus [2]; 0 mg/kg, 6 h, tissue Blood, dose level Control) was 21.8 s and the TERMINAL_BW (Rattus norvegicus [2]; [7]) was 212.6 g. It also gave an APTT (Rattus norvegicus [2]; 0 mg/kg, 9 h, tissue Blood, dose level Control) of 21.8 s, a TERMINAL_BW (Rattus norvegicus [2]; [8]) of 222.2 g and an MCH (Rattus norvegicus [2]; 0 mg/kg, 24 h, tissue Blood, dose level Control) of 21.3 pg. For the same compound, the TERMINAL_BW (Rattus norvegicus [2]; 100 mg/kg, 3 h, dose level Low) was 216.6 g, the TERMINAL_BW (Rattus norvegicus [2]; 100 mg/kg, 6 h, dose level Low) was 209.3 g and the MCH (Rattus norvegicus [2]; 100 mg/kg, 6 h, tissue Blood, dose level Low) was 21.3 pg. The TERMINAL_BW (Rattus norvegicus [2]; 100 mg/kg, 9 h, dose level Low) was 209.2 g, the MCH (Rattus norvegicus [2]; 100 mg/kg, 9 h, tissue Blood, dose level Low) was 21.8 pg and the TERMINAL_BW (Rattus norvegicus [2]; 100 mg/kg, 24 h, dose level Low) was 224.3 g. The MCH (Rattus norvegicus [2]; 100 mg/kg, 24 h, tissue Blood, dose level Low) was 21.8 pg, the TERMINAL_BW (Rattus norvegicus [2]; 300 mg/kg, 3 h, dose level Middle) was 216.2 g and the APTT (Rattus norvegicus [2]; 300 mg/kg, 3 h, tissue Blood, dose level Middle) was 22.3 s. The TERMINAL_BW (Rattus norvegicus [2]; 300 mg/kg, 6 h, dose level Middle) was 206.9 g, the APTT (Rattus norvegicus [2]; 300 mg/kg, 6 h, tissue Blood, dose level Middle) was 21.6 s and the TERMINAL_BW (Rattus norvegicus [2]; 300 mg/kg, 9 h, dose level Middle) was 207 g. For the same compound, the TERMINAL_BW (Rattus norvegicus [2]; 300 mg/kg, 24 h, dose level Middle) was 222.4 g, the APTT (Rattus norvegicus [2]; [15]) was 23.2 s and the MCH (Rattus norvegicus [2]; [15]) was 21.4 pg. The TERMINAL_BW (Rattus norvegicus [2]; 1000 mg/kg, 3 h, dose level High) was 215.5 g, the TERMINAL_BW (Rattus norvegicus [2]; 1000 mg/kg, 6 h, dose level High) was 209.3 g and the TERMINAL_BW (Rattus norvegicus [2]; 1000 mg/kg, 9 h, dose level High) was 206.9 g. The MCH (Rattus norvegicus [2]; 1000 mg/kg, 9 h, tissue Blood, dose level High) was 20.5 pg, the TERMINAL_BW (Rattus norvegicus [2]; 1000 mg/kg, 24 h, dose level High) was 229.2 g and the APTT (Rattus norvegicus [2]; [16]) was 21.3 s. The MCH (Rattus norvegicus [2]; [16]) was 21.1 pg.

Reference: ChEMBL document CHEMBL3885861, “Open TG-GATES”
